This is an account of results in ChEMBL document CHEMBL1127182, “DNA gyrase inhibitory and antibacterial activity of some flavones(1)” (Bioorg Med Chem Lett, 1993).

This experiment deals with DNA gyrase (Escherichia coli). Put plainly: Concentration facilitating 50% of the maximum of the cleavable complex.

In brackets after ≈: the same amount, converted by molar mass.

In turn, `O=c1c(O)c(-c2cc(O)cc(O)c2)oc2cc(O)cc(O)c12` gave a CC50 of 436 mg/L (≈ 1440 µM).
